The experiment concerns the target Type-1 angiotensin II receptor B (Rattus norvegicus, UniProt P29089). Briefly: Binding affinity for rat angiotensin II receptor, type 1.

Sequences of proteins named here, by UniProt entry; tags and fusion partners are left off.
UniProt P29089, whole entry: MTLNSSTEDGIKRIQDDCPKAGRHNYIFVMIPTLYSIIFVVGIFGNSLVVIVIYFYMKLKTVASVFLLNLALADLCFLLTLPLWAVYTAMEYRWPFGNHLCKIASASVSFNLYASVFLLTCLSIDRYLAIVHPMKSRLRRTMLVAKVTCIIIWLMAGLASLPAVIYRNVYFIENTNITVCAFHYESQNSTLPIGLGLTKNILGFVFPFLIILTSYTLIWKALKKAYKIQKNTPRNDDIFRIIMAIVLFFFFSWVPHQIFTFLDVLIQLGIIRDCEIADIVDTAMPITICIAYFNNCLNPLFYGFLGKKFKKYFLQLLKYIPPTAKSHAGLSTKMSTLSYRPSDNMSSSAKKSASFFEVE

For orientation: IC50 means the concentration that gives 50% inhibition. A lower IC50 goes with higher potency. In turn, `CCCc1nc2c(C)cc(C)nc2n1Cc1ccc(-c2c(C(=O)O)cnc3ccccc23)cc1` yielded an IC50 of 11 nM.

For the origin of these results see ChEMBL document CHEMBL1148280, “Design, synthesis, structural studies, biological evaluation, and computational simulations of novel potent AT(1) angiotensin II receptor antagonists based on the 4-phenylquinoline structure” (J Med Chem, 2004).
